The values below are quoted from earlier work in article PMC10731658 (Chemical Research in Toxicology, 2023).

The data set relates to tabun-induced oxidative stress. The settings on record: postexposure administration; cited from earlier work.

Regarding `NC(=O)c1cc[n+](C/C=C/C[n+]2ccc(C=NO)cc2)cc1.[Br-].[Br-]` [K203, 4-carbamoyl-1-((2E)-4-(4-((hydroxyimino)methyl)pyridin-1-ium-1-yl)but-2-en-1-yl)pyridin-1-ium dibromide], the “overall impact in protecting against oxidative stress induced by tabun” value was “not significant”.
